According to ChEMBL document CHEMBL1124015, “Methods for drug discovery: development of potent, selective, orally effective cholecystokinin antagonists” (J Med Chem, 1988):
pIC50: −log10 of the molar value.

Amino acid sequences for entries named in this document (tags omitted).
UniProt P30551, whole entry: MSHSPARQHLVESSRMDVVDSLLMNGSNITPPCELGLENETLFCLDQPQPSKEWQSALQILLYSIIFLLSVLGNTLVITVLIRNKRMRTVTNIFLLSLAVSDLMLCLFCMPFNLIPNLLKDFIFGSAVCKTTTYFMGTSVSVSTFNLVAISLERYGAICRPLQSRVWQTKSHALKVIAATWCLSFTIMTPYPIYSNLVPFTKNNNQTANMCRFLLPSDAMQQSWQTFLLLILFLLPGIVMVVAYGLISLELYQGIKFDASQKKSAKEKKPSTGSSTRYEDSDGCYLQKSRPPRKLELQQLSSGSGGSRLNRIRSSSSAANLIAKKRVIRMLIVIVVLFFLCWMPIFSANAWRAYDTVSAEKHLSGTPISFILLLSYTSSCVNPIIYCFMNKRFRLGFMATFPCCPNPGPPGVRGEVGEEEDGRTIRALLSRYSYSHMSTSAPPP

Biological target: Cholecystokinin receptor type A (Rattus norvegicus, UniProt P30551)
Experiment: Half-maximal inhibition of [125I]CCK-33 binding to cholecystokinin A receptor from rat pancreatic tissue

| SMILES | pIC50 |
| --- | --- |
| O=C(NC1N=C(c2ccccc2F)c2ccccc2NC1=O)c1ccccc1Cl (configuration not stated) | 5.26 |
| CN1C(=O)C(NC(=O)c2ccc(Cl)cc2)N=C(c2ccccc2)c2ccccc21 (configuration not stated) | 8.08 |
